## Binding of CDR-mutated scFvs to a peptide of the spike HR2 region

From the AlphaSeq antibody data of Li et al. 2023 (doi:10.1038/s41467-023-39022-2), copy in the FLAb collection.

The target is the same throughout: PDVDLGDISGINAS, from the HR2 region of SARS-CoV-2 spike.

Parent scFv Ab-14: VH joined to VL by three GGGGS repeats. Changes lie in the light chain CDRs alone.
VH: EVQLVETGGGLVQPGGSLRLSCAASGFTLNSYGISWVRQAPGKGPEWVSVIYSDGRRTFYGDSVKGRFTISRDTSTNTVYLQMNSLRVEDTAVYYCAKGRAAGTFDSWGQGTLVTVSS
VL: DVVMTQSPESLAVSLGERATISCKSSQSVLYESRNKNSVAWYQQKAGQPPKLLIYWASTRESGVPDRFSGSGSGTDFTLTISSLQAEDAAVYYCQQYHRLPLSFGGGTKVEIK

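The starting antibody came from a phage panning campaign against this peptide. The variants were designed computationally from a first round of random CDR variants and then made and measured. Group labels follow the data file (En: ensemble of fine-tuned language models; GP: Gaussian process model; HC: hill climbing; Gen: genetic algorithm; Gibbs: Gibbs sampling; a sequence that several methods proposed may carry one label only). The scFvs were displayed on barcoded MATa yeast, the peptide on MATalpha yeast. The frequency of each diploid, read from paired DNA barcodes, reflects how well the two displayed proteins bind. Read counts were normalised to the haploid input and turned into Kd by a linear fit to BCL2-family pairs of known affinity, for each replicate. Each pool was mated in six replicate cultures.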

Variants are written as CDR1, CDR2 and CDR3 of the light chain (limits as in the source). Parent: KSSQSVLYESRNKNSVA, WASTRES, QQYHRLPLS. Variants here have more than six changes. Affinities are written as log10 Kd with Kd in nM; a lower number is a better binder. A mean of the replicates is given; it leaves out those without a signal. A pair that was not seen in that replicate is written "nd"; this usually means weak binding, but a binder can also be missed. The list is sorted by this average, lowest first, undetected variants last. The authors averaged sequences with at least three values out of six and counted those with two or fewer as poor binders. A sequence measured in both rounds can read differently, since the two assays cover different ranges. Of ten entries with the parent sequence, four were seen in most replicates (averages 0.34 to 2.37), three in one and three in none, so single entries are noisy. As a blank, each scFv also met three strains without target: over all light chain designs, 4% of these pairings were detected, typically at 2.64 and seldom below 1.59. For each scFv, signals with the empty controls are counted beside the result.

With IITQSVMQESRNKRNVA | NTDEREP | QQYDRLPLI [En_HC] the result was 0.08, -0.36, -0.45, -0.39, -0.47, -0.27 (mean -0.31; controls 3 of 18).
With MLSEVLHMLGVMKNSIA | DLVLRAN | QQYHRLPLM [En_Gen] the result was -0.17, -0.12, 0.43, -0.13, -0.52, -0.11 (mean -0.10; controls 0 of 18).
With KLEQSELYMSRNANSVA | NASTRMS | QQYHRLPLS [GP_Gibbs] the result was 0.04, 0.06, -0.03, -0.09, -0.19, 0.02 (mean -0.03; controls 2 of 18).
With KLQQQSLYGSRNKNSVA | SASTREQ | QQYHRLPLS [GP_Gibbs] the result was 0.24, -0.27, -0.29, -0.26, 0.39, 0.10 (mean -0.02; controls 2 of 18).
With KVFPSELGLSRNKMSVA | DASTRES | QQYHRLPLS [GP_Gibbs] the result was 0.25, 0.10, 0.27, -0.10, -0.38, 0.10 (mean 0.04; controls 0 of 18).
With KVYQSSLYESRNDNNVA | NASLRES | QQYHRLPLS [GP_Gibbs] the result was 0.21, 0.10, 0.01, -0.03, 0.16, -0.05 (mean 0.07; controls 2 of 18).
With KVSQWWLYESRMKNAVA | NASTRED | QQYHRLPLS [GP_Gibbs] the result was 0.36, 0.19, -0.06, -0.10, -0.08, 0.31 (mean 0.10; controls 3 of 18).
With HISQMVMYGSCNKNNVA | QVTTREE | QQYHRLPLS [En_HC] the result was 0.26, 0.29, 0.21, 0.19, 0.17, 0.74 (mean 0.31; controls 5 of 18).
With HTQHLGFGDPAHANSIA | ERSQVCA | QQYFRLPLI [En_Gibbs] the result was 0.33, 0.25, -0.08, 0.27, 0.49, 0.86 (mean 0.35; controls 0 of 18).
With MLTRFNLENQGVSNNIA | DTNQVQE | QQYFRLPFA [En_Gibbs] the result was 0.60, 0.31, 0.32, 0.46, 0.18, 0.29 (mean 0.36; controls 0 of 18).
With TLSQSWGMESHHKNNVA | QESTREK | QQYFRLPIS [En_HC] the result was 0.31, 0.19, 0.07, 0.48, 0.88, 0.67 (mean 0.43; controls 0 of 18).
With KIQWYPMENRGTIQAIA | EASTIYN | QQYMHLPLS [En_Gibbs] the result was 0.44, -0.54, 0.71, 0.51, 0.96, 0.74 (mean 0.47; controls 1 of 18).
With KVFPSELGESRNKMSVA | HASTRES | QQYHRLPLS [GP_Gibbs] the result was 0.66, 0.91, 0.30, 0.37, 0.08, 0.74 (mean 0.51; controls 0 of 18).
With KFGSGVHVESIMKNSIA | QTSTREE | QQYDRLPLS [En_HC] the result was 0.76, 0.66, 0.33, 0.50, 0.52, 0.44 (mean 0.53; controls 2 of 18).
With KVSEFMRGLMMRKDSIA | DNETRES | QQYDRLPLS [En_Gen] the result was 1.26, 0.37, 0.41, 0.15, 0.24, 2.09 (mean 0.76; controls 1 of 18).
With KFSISWGMESRNKNSVA | NASHRMS | QQYHRLPLS [GP_Gibbs] the result was 0.58, 0.68, 0.92, 0.79, 1.05, 0.96 (mean 0.83; controls 1 of 18).
With KLRQVTGYEMYAKNSVA | QTSTRVS | QDYHRLPLS [En_HC] the result was 0.82, 0.69, 1.02, 0.82, 0.70, 1.13 (mean 0.87; controls 2 of 18).
With KISMLHNQTFEQSNNVA | EMVTREN | QQYHRLPLS [En_Gen] the result was 1.01, 1.51, 0.91, 0.63, 1.30, 0.66 (mean 1.00; controls 1 of 18).
With TIAQSMLYMSNLKNSIA | QAETRES | QQYHRLPIS [En_HC] the result was 1.30, 0.39, 0.68, 1.13, 1.28, 1.62 (mean 1.07; controls 0 of 18).
With TISGSVMSESRLKNSVA | QTTTRES | QQYDRLPLS [En_HC] the result was nd, 1.81, 1.09, 0.49, 1.01, 1.58 (mean 1.20; controls 0 of 18).
With RMNKFMSGATEAKNSMA | GQEHRAR | QSYHRLPLS [En_Gibbs] the result was 0.60, 1.39, 1.21, 2.33, 1.09, 1.31 (mean 1.32; controls 2 of 18).
With MISNLMNMGSFAINSVA | QASIRNS | QQYDRLPLI [En_Gen] the result was 1.36, 1.45, 1.18, 1.81, 2.11, 1.69 (mean 1.60; controls 0 of 18).
With NVQLQVRSDNNNKYNIA | DEMLREY | QQYNRLPLS [En_Gibbs] the result was nd, 2.16, 1.08, nd, nd, nd (mean 1.62; controls 0 of 18).
With KLSLITGHLSVSKNNVA | EMATREN | QQYDRLPLS [En_Gen] the result was 1.25, 2.31, nd, 1.62, 0.77, 2.28 (mean 1.65; controls 1 of 18).
With MVTQMAMTGMMSKRSVA | NAEMREH | QQYHRLPLI [En_Gen] the result was nd, nd, 1.55, 1.92, 1.84, 1.39 (mean 1.67; controls 0 of 18).
With KLPQSMQYESRNKNNVA | SASCRES | QQYHRLPLS [GP_Gibbs] the result was nd, nd, 1.84, 1.75, nd, nd (mean 1.80; controls 0 of 18).
With HMSMLTLQGMRHRNSVA | QMTTRVN | QQYDHLPLS [En_Gen] the result was nd, 1.98, 1.84, 3.43, 1.87, 1.95 (mean 2.21; controls 3 of 18).
With MLSMLADYSQVSKNSVA | EMETREN | QQYDRLPLI [En_Gen] the result was 1.86, 2.03, 3.03, 1.85, 2.43, 3.24 (mean 2.41; controls 0 of 18).
With KLVGVDDNDNNPMSAIA | DVNTLDN | QQYHRLPLD [En_Gibbs] the result was 3.08, 2.10, 2.72, 2.26, 3.58, 2.80 (mean 2.76; controls 0 of 18).
With HMMSGSVEQWNIQNAVA | EMSEVYR | QQYVSLPLS [En_Gibbs] the result was nd, nd, nd, nd, nd, nd (controls 0 of 18).
With MISQVLNTLTREGNNVA | DLTERYD | QQYFRLPLS [En_Gen] the result was nd, nd, nd, nd, nd, nd (controls 1 of 18).

The 2 strongest on average among those seen in every replicate, once more:

CDR-L1	CDR-L2	CDR-L3	group	log10 Kd, replicates	mean log10 Kd (nM)	control signals
IITQSVMQESRNKRNVA	NTDEREP	QQYDRLPLI	En_HC	0.08, -0.36, -0.45, -0.39, -0.47, -0.27	-0.31	3 of 18
MLSEVLHMLGVMKNSIA	DLVLRAN	QQYHRLPLM	En_Gen	-0.17, -0.12, 0.43, -0.13, -0.52, -0.11	-0.10	0 of 18